This is an account of results in PubChem BioAssay AID817 (Emory University Molecular Libraries Screening Center, 2007).

Only a part is listed here, and it is no random draw. Some of these compounds have results that are not shown, active ones among them. The source made the active and inactive calls.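 The calls were made as follows: active = z-score above 3 at both the 24 hr and the 30 hr optical density reads; inactive = the rest, inconclusive results apart.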

This assay in a line: restorers of sdo1-deficient yeast growth – S. cerevisiae, bone marrow failure model, primary screen (AID 817).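 Also: z-score against mean and SD of all compound wells on the same plate.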 Conditions: S. cerevisiae sdo1-depleted JHY4D growth rescue, OD600 30 h; at 10 µM; hits give high values; pdr5 snq2 efflux-pump mutant strain.
For `CN(C)c1cccc(C(=O)NCC2(N(C)C)CCCCC2)c1`, the z-score was inactive: -0.22.
Turning to `O=C(OC1CN2CCC1CC2)C(CO)(c1ccccc1)c1ccccc1` (stereo not given), the z-score is inactive: 0.1.
With `CCN1CCCC(OC(=O)C2(O)c3ccccc3C=Cc3ccccc32)C1` (stereo not given), the z-score was inactive: 1.23.
Next, `CN(C)C1CCCC1OC(=O)C(O)(c1ccccc1)c1ccccc1` (stereo not given): inactive: -0.35; `CC(C)N1C(=O)CC2(CCN(CCOC(=O)C(O)(c3ccccc3)c3ccccc3)CC2)C1=O`: inactive: 0.8.
